Biological target: T1, Endothelin receptor type B (Bos taurus, UniProt P28088)
T1 sequence (P28088 whole entry): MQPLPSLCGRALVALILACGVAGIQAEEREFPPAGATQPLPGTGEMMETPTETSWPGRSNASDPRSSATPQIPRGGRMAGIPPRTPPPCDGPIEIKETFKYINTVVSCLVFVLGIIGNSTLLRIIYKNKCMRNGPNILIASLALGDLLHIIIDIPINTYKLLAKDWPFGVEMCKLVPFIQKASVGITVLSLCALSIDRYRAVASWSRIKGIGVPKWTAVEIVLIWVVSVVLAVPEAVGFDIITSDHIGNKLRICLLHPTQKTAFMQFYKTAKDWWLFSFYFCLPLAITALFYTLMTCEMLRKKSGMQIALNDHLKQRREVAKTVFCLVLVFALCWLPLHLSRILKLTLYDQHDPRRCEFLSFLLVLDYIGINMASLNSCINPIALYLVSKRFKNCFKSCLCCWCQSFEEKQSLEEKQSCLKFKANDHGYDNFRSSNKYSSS
Test: Binding activity against Endothelin B receptor expressed from bovine cerebellum membrane preparation
Assay type: tissue-based

Compound | IC50 [nM]
C[C@@H]1NC(=O)[C@@H]([C@@H](C)O)NC(=O)CNC(=O)[C@@H](Cc2cnc[nH]2)NC(=O)[C@H](Cc2c[nH]c3ccccc23)NC(=O)[C@@H](CC(N)=O)NC(=O)CNC(=O)C[C@H](C(=O)N[C@@H](Cc2c[nH]c3ccccc23)C(=O)N[C@@H](Cc2ccccc2)C(=O)N[C@@H](Cc2ccccc2)C(=O)N[C@@H](CC(N)=O)C(=O)N[C@@H](Cc2ccc(O)cc2)C(=O)N[C@@H](Cc2ccc(O)cc2)C(=O)N[C@@H](Cc2c[nH]c3ccccc23)C(=O)O)NC(=O)[C@H]2CCCN2C1=O | 7.3
C[C@@H]1NC(=O)[C@@H]([C@@H](C)O)NC(=O)CNC(=O)[C@@H](Cc2c[nH]cn2)NC(=O)[C@H](Cc2c[nH]c3ccccc23)NC(=O)[C@@H](CC(N)=O)NC(=O)CNC(=O)C[C@H](C(=O)N[C@@H](Cc2c[nH]c3ccccc23)C(=O)N[C@@H](Cc2ccccc2)C(=O)N[C@@H](Cc2ccccc2)C(=O)N[C@@H](CC(N)=O)C(=O)N[C@@H](Cc2ccc(O)cc2)C(=O)N[C@H](Cc2ccc(O)cc2)C(=O)N[C@@H](Cc2c[nH]c3ccccc23)C(=O)O)NC(=O)[C@H]2CCCN2C1=O | > 98

— ChEMBL document CHEMBL1151069, “Analogs of an endothelin antagonist RES-701-1: substitutions of C-terminal amino acid” (Bioorg Med Chem Lett, 1996)
